Laboratory results published in patent US20180371033A1, “THERAPEUTIC PEPTIDES AND METHODS OF USE THEREOF” (priority 2015, published 2018).

Experiments:
[1] = Brain section autoradiography: peptide homing to ventricles and cerebral spinal fluid; format: in vivo, Female Harlan athymic nude mice; settings: 14C signal in sagittal/coronal brain sections, 3 hours after administration
Description: The experiment was done in duplicates.

[2] = format: in vivo, mice; settings: 14C whole body autoradiography; for Bladder / Spinal Cord: radioactivity signal per area in blood compared to tissue
Description: This example describes biodistribution of peptides.
ND indicates the peptide was not detected in that tissue.

[3] = for Blood (densitometric signal in the heart blood) / Brain (percentage of signal in that tissue compared to the signal detected in the heart blood): 14C-radiolabeled peptide, tail vein injection, kidneys ligated, target three hours circulation; for penetration of the blood brain barrier in comparison with the negative controls: reference level for high penetration: at least 10% diffuse signal in brain versus blood

Sequence | localization of the peptide to specific structures in the brain [1] | Adipose (percentage of signal compared to blood in the heart) [2] [%] | Gall bladder (percentage of signal compared to blood in the heart) [2] [%] | Liver (percentage of signal compared to heart blood) [2] [%] | Lower GI (percentage of signal compared to blood in the heart) [2] [%] | Lung (percentage of signal compared to heart blood) [2] [%] | Muscle (percentage of signal compared to blood in the heart) [2] [%] | Pancreas (percentage of signal compared to blood in the heart) [2] [%] | Reproductive (tract; percentage of signal compared to heart blood) [2] [%] | Salivary gland (percentage of signal compared to heart blood) [2] [%] | Spleen (percentage of signal compared to blood in the heart) [2] [%] | Upper GI (percentage of signal compared to blood in the heart) [2] [%] | Bladder [2] | Spinal Cord [2] | Blood (densitometric signal in the heart blood) [3] | Brain (percentage of signal in that tissue compared to the signal detected in the heart blood) [3] [%] | penetration of the blood brain barrier in comparison with the negative controls [3]
GSVGCEECPMHCRGRNANPTCDDGVCNCNV [SEQ ID NO: 83] | specific structures in the brain, such as ventricles and CSF | – | – | – | – | – | – | – | – | – | – | – | – | – | – | – | –
GSGCLEFWWKCNPNDDKCCRPKLKCSKLFKLCNFSFG [SEQ ID NO: 2] | – | 46.92 | 158.65 | 507.95 | 33.29 | 148.59 | 68.00 | 89.66 | 165.31 | 150.77 | 90.64 | 624.30 | Low | Low | 1327759044 | 11.27 | highly penetrate the blood brain barrier
GSKCLPPGKPCYGATQKIPCCGVCSHNNCT [GS-Hainantoxin, reference compound] | – | 5.05 | 315.85 | 70.61 | 10.65 | 85.11 | 20.63 | – | 77.98 | 16.59 | – | 387.02 | – | – | 1768833565 | 3.65 | –
GSVGCEECPMHCKGKNANPTCDDGVCNCNV [first purified fraction (first HPLC peptide peak) of a peptide of SEQ ID NO: 55] | specific structures in the brain, such as ventricles and CSF | – | – | – | – | – | – | – | – | – | – | – | – | – | – | – | –
GSVGCEECPMHCKGKNANPTCDDGVCNCNV [second purified fraction (second HPLC peptide peak from the ] | specific structures in the brain, such as ventricles and CSF | – | – | – | – | – | – | – | – | – | – | – | – | – | – | – | –
GSMCIPCFTTNPNMAAKCNACCGSRRGSCRGPQCIC [SEQ ID NO: 1] | – | 4.78 | – | 129.99 | 9.87 | 89.98 | 36.56 | 92.54 | – | 62.08 | 83.62 | 793.25 | ND (ND indicates the peptide was not detected in that tissue) | moderate | 2203247460 | 14.53 | highly penetrate the blood brain barrier
GSECRYWLGTCSKTGDCCSHLSCSPKHGWCVWDWTFRK [SEQ ID NO: 3] | – | 6.20 | 86.20 | 109.00 | 17.04 | 181.48 | 25.47 | 37.76 | 60.79 | 47.89 | 43.16 | 69.16 | ND (ND indicates the peptide was not detected in that tissue) | Low | 2858983560 | 10.76 | highly penetrate the blood brain barrier
